ABCB6 inh MLPCN: human ABCB6 transporter inhibition. K562-ABCB6 porphyrin accumulation, flow cytometry, 1 h; active compounds read low. 360,000 compounds, 0.19% hits. fluorescence ratio to DMSO, % at 10 µM. Q9NP58;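 active = fluorescence ratio to DMSO below 75%, the collection mean minus 3 SD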;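 note: signal is porphyrin accumulated inside mitochondria; lower ratio means ABCB6 inhibition with less porphyrin fluorescence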
PKA-R1A activ: activators of PKA-R1A complex; P00514+P68181; PKA-R1A dissociation, Cy5-IP20 fluorescence polarization; scaled: DMSO 0%, 113 µM cGMP 100%; activation, % at 11.4 µM; 340,000 compounds, 0.083% hits; AID 504707;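 active = percent activation above the mean of all tested compounds plus 3 SD, cut at about 19% in these data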;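 note: higher means more PKAc released from R1A so a rise in polarization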
p-CIP stab down: compounds decreasing mouse p/CIP protein stability; 290,000 compounds, 0.01% hits; Q05BA5; AID 1984; decrease of EGFP signal, % at 10 µM; F442A p/CIP-EGFP cells, EGFP fluorescence, 16 h;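 active = EGFP signal decrease of at least 30% at 10 µM or well 3 SD below plate mean, unless failing retest; inactive = the rest, including hits failing retest or dose response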
PKA-R2B act: activates the human PKA-R2B holoenzyme complex; 340,000 compounds, 0.079% hits; P22694+P31323; activation, % at 11.4 µM; PKA-R2B holoenzyme dissociation, Cy5-IP20 fluorescence polarization; R2B truncated from residue 108, S112A mutant; 0% DMSO only, 100% 113 µM cGMP; AID 504700;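 active = activation above a cutoff set at the mean over all compounds plus 3 SD, cut at about 18% in these data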;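 note: higher means more holoenzyme dissociation and a rise in polarization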
UUG fidelity: modulators of yeast start codon fidelity, primary screen, whole organism, S. cerevisiae, single point, plate reader | activity score, % at 18.7 µM | 350,000 tested, 0.13% active | S. cerevisiae UUG-firefly luciferase reporter, luminescence/redox ratio;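 active means replicate mean at a twofold rise or more, about +100% in these data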;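 further: firefly luciferase made from a UUG start codon reports start codon fidelity; reporter light over untreated wells divided by growth signal over untreated wells; some hits fall short of that in this replicate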
Granule exo inh: lytic granule exocytosis inhibition. AID 651702. TALL-104 LAMP-1 surface exposure, flow cytometry; cells stimulated with thapsigargin and PMA. 360,000 compounds, 0.66% hits. inhibition, % at 10 µM;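 active = inhibition above about 55%, limit read from the data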
Granule exo CP1: lytic granule exocytosis inhibition. shares compounds with Granule exo inh. TALL-104 cells, LAMP-1 externalization, flow cytometry; stimulated with PMA plus thapsigargin. inhibition, % at 10 µM. 1,500 compounds, 11% hits. AID 651954; in the data active = inhibition above about 60%
Hits are given with their value; – = inactive; · = no result. This is a sample that favours compounds with a hit; in the whole collection about 0.94% have one here.

SMILES	ABCB6 inh MLPCN	PKA-R1A activ	p-CIP stab down	PKA-R2B act	UUG fidelity	Granule exo inh	Granule exo CP1
Nc1c(C(=O)NCc2ccccc2)c2nc3ccccc3nc2n1CCCN1CCOCC1	–	–	–	–	·	–	·
O=C(C[C@H]1CC[C@@H]2[C@H](COC[C@@H](O)CN2C(=O)Nc2ccc(Cl)c(Cl)c2)O1)NCc1ccc(Cl)c(Cl)c1	·	·	·	·	–	·	·
Cn1c(NCC(O)c2ccccc2)nc2c1c(=O)n(Cc1ccc(Cl)cc1)c(=O)n2C (stereo not drawn)	–	–	–	–	–	–	·
Cn1c(NCC(O)c2ccccc2)nc2c1c(=O)n(Cc1ccc(Cl)c(Cl)c1)c(=O)n2C (stereo not drawn)	–	–	·	–	–	92.2	–
O=C(C[C@@H]1C[C@@H]2c3cc(NC(=O)Cc4ccncc4)ccc3O[C@@H]2[C@H](CO)O1)NCC1CC1	·	·	·	·	–	·	·
O=C(Nc1ccc(Cl)c(Cl)c1)N[C@@H]1CC[C@@H](CCn2cc(C3CC3)nn2)O[C@H]1CO	·	·	·	·	–	·	·
COCCn1c(-c2ccc(-c3ccccc3Cl)o2)nc2c1c(=O)[nH]c(=O)n2CC(C)C	–	–	–	–	–	–	·
CCCCn1c(=O)[nH]c(=O)c2c1nc(-c1ccc(-c3ccccc3Br)o1)n2CCOC	–	–	–	–	–	55.9	–
Cc1ccc(CN(C)c2nc(-c3cccnc3)nc3ccccc23)o1	–	–	–	–	–	–	·
CC(Nc1nc(-c2cccnc2)nc2ccccc12)c1ccc(F)cc1 (stereo not drawn)	–	–	–	–	–	65.3	–
Cc1ccc(CNc2nc(-c3cccnc3)nc3ccccc23)cc1	–	–	–	–	–	105.4	–
CN(Cc1ccccc1F)c1nc(-c2cccnc2)nc2ccccc12	–	–	–	–	–	100.5	–
COc1ccc(Oc2nc(-c3cccnc3)nc3ccccc23)cc1	–	–	–	–	–	87.5	–
CC(=O)CCc1ccc(Oc2nc(-c3cccnc3)nc3ccccc23)cc1	–	–	–	–	·	–	·
CC(Nc1nc(-c2ccccc2)nc2ccccc12)c1ccccc1 (stereo not drawn)	–	–	–	–	–	–	·
CC(=O)N(C)C[C@@H]1Oc2ncc(-c3ccc(C(=O)N(C)C)cc3)cc2C(=O)N([C@@H](C)CO)C[C@H]1C	·	·	·	·	–	·	·
CCOc1cccc(-c2nnc3n2N=C(c2cc(OC)ccc2OC)CS3)c1	–	–	–	–	–	75.1	–
COc1cccc(CN2C(=O)[C@H]3Cc4c([nH]c5ccccc45)C(C)(C)N3C2=O)c1	–	–	·	–	–	77.9	–
COc1cccc(CNC(=O)C[C@H]2CC[C@H](NC(=O)C3CCOCC3)[C@H](CO)O2)c1	·	·	·	·	–	·	·
COC(=O)c1ccc(Cn2nnc3c(=O)[nH]c(C4CCN(S(=O)(=O)c5ccc(F)cc5)CC4)nc32)cc1	–	–	–	–	–	–	·
CC(C)(C)c1ccc(Cn2nnc3c(=O)[nH]c(C4CCCN(C(=O)c5cccs5)C4)nc32)cc1 (stereo not drawn)	–	–	–	–	–	–	·
COC(=O)c1ccc(Cn2nnc3c(=O)[nH]c(C4CCCN(S(=O)(=O)c5ccccc5Cl)C4)nc32)cc1 (stereo not drawn)	–	–	–	–	–	57.3	–
O=C(c1cccs1)N1CCCC(c2nc3c(nnn3Cc3c(Cl)cccc3Cl)c(=O)[nH]2)C1 (stereo not drawn)	–	–	–	–	–	76.8	–
O=C(NCC[C@@H]1CC[C@H](NC(=O)c2ccc3c(c2)OCO3)[C@@H](CO)O1)Nc1cc(F)ccc1F	·	·	·	·	–	·	·
Cc1ccc(CN(C)C(=O)c2c(C)nn(-c3ccccc3)c2C)cc1	–	–	–	–	·	67.1	–
CC(=O)c1c(C)nn(-c2ccccc2)c1C	–	–	–	–	·	–	·
CCCNC(=O)N[C@H]1C=C[C@H](CC(=O)NC2CCC2)O[C@H]1CO	·	·	·	·	–	·	·
CN1CCN(CCCNC(=O)c2ccc(/C=C3\Oc4ccccc4N(Cc4ccccc4F)C3=O)cc2)CC1	–	–	–	–	–	–	·

Bioassay records deposited in PubChem BioAssay by several laboratories.
